Measurements taken from article PMC9308409 (Communications Biology, 2022).

Columns and labels:
[1] = target: human TPC1 L11A/I12A (TPC1^PM) (Homo sapiens, UniProt Q9ULQ1, I12A/L11A); assay: cell-based
Description: (§1) After 24 h of transfection, human TPC1^PM or TPC2^PM channel currents were acquired at room temperature using an EPC-10 amplifier and PatchMaster software (HEKA) or a MultiClamp 700B amplifier and pCLAMP software (Axon Instruments). […] Patch pipettes were polished with a resistance of 2–3 MΩ for recording. Similarly, for whole-cell recording to allow inhibitor application on the extracellular side, the K^+-based solution was used as the pipette solution, and the Na^+-based solution was used in the bath.

[2] = target: human TPC1^PM F692H mutant (Homo sapiens, UniProt Q9ULQ1, F692H/I12A/L11A); assay: cell-based
Description: as §1

[3] = TPC1, read-out: Normlized inhibition, individual cells

Nc1ccc(C(=O)Nc2cccc(-c3nc(N4CCOCC4)c4oc5ncccc5c4n3)c2)cn1 [YM201636]
IC50 [1]: > 20000 nM
inhibition at 5 µM [1, 3]: 26.1%
inhibition at 21.39 µM [1, 3]: 33.5%
IC50 [2]: ~2300 nM
inhibition at 1 µM [2, 3]: 40.8%
inhibition at 5 µM [2, 3]: 58.4%
inhibition at 21.39 µM [2, 3]: 68.9%
